Only a part is listed here, and it is no random draw. The source made the active and inactive calls.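 The calls were made as follows: active = inhibition above a cutoff derived from the DMSO control wells (cut at about 30% in these data); inactive = the rest.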
assay: AlphaScreen optical interference compounds, counter-screen for MITF inhibitor project, biochemical, triplicate (AID 1259376); conditions: LysRS AlphaScreen counterscreen, signal interference, at 2.6 µM, stronger effect = higher value

Row | SMILES | inhibition
1 | Cc1ccc([N+](=O)[O-])c2no[n+]([O-])c12 | inactive: -1.23%
2 | CC(C)OP(=O)(OC(C)C)C(=O)c1ccco1 | inactive: 10.7%
3 | CCOP(=O)(CN)OCC | inactive: 17.6%
